Earlier results on one molecule are cited in PMC4717123, “The cytochrome P450 CYP6P4 is responsible for the high pyrethroid resistance in knockdown resistance-free Anopheles arabiensis” (Insect Biochemistry and Molecular Biology, 2016).

The test system of the data set is An. arabiensis populations from Ndjamena. On the set-up: method as in Witzig et al., 2013. The conditions noted are these: Chad, 2009, ref Witzig et al., 2013; cited from earlier work.

On to `CC1(C)C(C=C(Cl)Cl)C1C(=O)OCc1cccc(Oc2ccccc2)c1` (stereo not shown) [permethrin], for which the resistance/susceptibility status result is reported as “resistant”.
